Assay outcomes as filed in PubChem.
Rows were chosen to be rich in hits. Some 1.7% of all compounds tested hit in one or more screens of this group.
PTHR1 ag – agonists of human PTHR1 parathyroid hormone receptor. Q03431. HEK293 GP2 PTHR1 cells, GloSensor cAMP luminescence, 1 h. Potency, µM (titrated, usually from 115 µM), inactives show top-dose activation, usual class: activators. actives 0.075% (n = 410,000). AID 743266; also: potency is read from the fitted curve at half-maximal effect; nearly all actives have a fitted effect of over 55% in size
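HEK-293-derived GP2 cells expressing PTHR1 and a GloSensor cAMP reporter, 3,000/well, plated overnight, given luciferin plus IBMX (each 0.5 mM as added) for 1 h at 37 °C, then compound for 1 h at 37 °C. Luminescence was read after 15 min at room temperature.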
miR-21 reporter – miR-21 reporter, rising signal; HeLa miR-21 FLuc reporter, luciferase, 48 h; Potency, µM (doses to about 38.3 µM), for inactives: at the highest dose reporter change, positive = more light; 340,000 tested, under 10 active; AID 2288; active = well fitted rising curve with a large enough effect; inconclusive = small, poorly fitted or top-dose-only effect; inactive = no such curve, though single readings can be large or run the other way;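 further: % of control where 0% means no effect; miR-21 action dims this reporter so a rising signal means less miR-21 action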
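Compounds were titrated across several concentrations (up to approximately 40 uM) and incubated 48 hours with HeLa miR-21-FLuc reporter cells (miR-21 target sequence downstream of FLuc, endogenous miR-21). Readout was firefly luciferase luminescence after lytic detection reagent.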
Pin1 inh – blocks the human prolyl isomerase Pin1. Q13526. Potency, µM (doses to about 115 µM), for inactives: top-dose activity, negative = inhibition, actives largely listed as inhibitors. actives 0.009% (n = 390,000). Pin1 FP peptide displacement, HiFluor488, 10 min; active = well fitted inhibition curve with a large enough effect in the polarisation, with a control signal flat, not every such curve was filed as active; inconclusive = small, poorly fitted or top-dose-only effect, or effect the other way, or a change in a side signal; inactive = no such curve, though single readings can be large or run the other way; the % refers to the polarisation; also: potency is read from the fitted curve at half-maximal effect; % is scaled to controls: 0 for no effect and ±100 for the full control effect
GLP-1R inv ag – inverse agonists of human GLP-1 receptor. Potency, µM (top dose mostly 38.3 µM), without a hit: at the highest dose activity change, negative = inhibition, hits mostly inhibitors. actives 1.6% (n = 410,000). AID 624417. HEK293 GLP-1R CRE-luciferase, luminescence, 24 h; GLP-1R form is constitutively active; also: potency is read from the fitted curve at half-maximal effect; % is scaled to controls: 0 for no effect and ±100 for the full control effect; nearly all actives have a fitted effect of over 55% in size
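Seeding at 200 cells/uL, 12 h culture, 24 hr compound treatment, then luciferase reagent and a luminescence read; cells are HEK293 stably expressing a constitutively active GLP-1R plus cAMP-responsive luciferase.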
GLP1R cytotox – cytotoxic in the GLP-1 receptor inverse agonist counter-screen; actives 0.13% (n = 410,000); AID 624418; HEK293 cAMP-luciferase reporter cells, luminescence, 24 h; Potency, µM (doses to about 38.3 µM), for the others: at the top dose activity change, negative = inhibition, hits mostly inhibitors;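 also: loss of luciferase light is scored as toxicity; potency is read from the fitted curve at half-maximal effect; % is scaled to controls: 0 for no effect and ±100 for the full control effect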
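MLSMR compounds, 24 hr on cells at 37 deg C/5% CO2; luminescence after luciferase reagent (12 min RT). Inhibition counted as the undesired cytotoxic outcome.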
GLP-1R agonist – activates the human GLP-1 receptor; P43220; HEK293 GLP-1R CRE-luciferase, luminescence, 4-6 h; cells express a hypersensitive GLP-1R form; Potency, µM (series often up to 45.6 µM), inactives show at the top dose activation, most hits filed as activators; actives 0.007% (n = 380,000); also: potency is read from the fitted curve at half-maximal effect; % of control where 0% means no effect
* hit, by the source's call; i = inactive; ? = inconclusive; / = no result given; [ ] = remark or other dose. Unless noted, calls follow the shape of the dose curve; as a rule, active = well fitted curve in the direction sought with a large enough effect; inconclusive = small, poorly fitted or top-dose-only effect, or another doubt; inactive = no such curve, though single readings can be large; an effect the other way counts as inactive or inconclusive.

Keys: A = PTHR1 ag; B = miR-21 reporter; C = Pin1 inh; D = GLP-1R inv ag; E = GLP1R cytotox; F = GLP-1R agonist
> Cc1noc(C)c1CSCC(=O)Nc1cc(C(F)(F)F)ccc1N1CCCCC1
  A: -33%; B: /; C: 13%; D: ?; E: -5%; F: 5%
> Cc1cccc2sc(NC(=O)C3CSC4(C)CCC(=O)N34)nc12 (stereo not given)
  A: -28%; B: 0%; C: 1%; D: 7.1µM*; E: -2%; F: 1%
> CCCC(=O)Oc1c(Sc2ccc(Cl)cc2)c(C)nn1-c1ccccc1
  A: -68%; B: -1%; C: -2%; D: ?; E: -8%; F: /
> O=C(CN1C(=O)c2ccccc2S1(=O)=O)Nc1cc(S(=O)(=O)N2CCOCC2)ccc1N1CCOCC1
  A: /; B: /; C: -5%; D: /; E: /; F: /
> NCC/C=C1/c2ccccc2CSc2ccccc21
  A: i; B: 18%; C: 1%; D: 3.2µM*; E: ?; F: -2%
> C=CCN(C)CC/C=C1\c2ccccc2CSc2ccccc21
  A: -7%; B: -2%; C: -5%; D: ?; E: ?; F: 0%
> C#CCN(C)CC/C=C1\c2ccccc2CSc2ccccc21
  A: i; B: 16%; C: -3%; D: 4.5µM*; E: -3%; F: 2%
> CN(CC/C=C1/c2ccccc2CSc2ccccc21)CCCO
  A: i; B: 13%; C: 2%; D: 5.6µM*; E: ?; F: 2%
> CC(O)CN(C)CC/C=C1/c2ccccc2CSc2ccccc21 (stereo not given)
  A: -13%; B: 19%; C: -1%; D: ?; E: 0%; F: -2%
> CN1C(=O)c2ccccc2Sc2ccc(NC(=O)COc3ccc(F)cc3)cc21
  A: -29%; B: ?; C: 10%; D: ?; E: -11%; F: /
> CCNc1nc(CN2CCOCC2)nc2sc3c(c12)CCC3
  A: -3%; B: -16%; C: 3%; D: -7%; E: 22%; F: 6%
> c1ccc2c(c1)CCN(c1nc(CN3CCOCC3)nc3sc4c(c13)CCCC4)C2
  A: -40%; B: 1%; C: 27%; D: 8.9µM*; E: 4%; F: 21%
> O=C1c2ccccc2C(=O)N1c1cccc(Cl)c1
  A: /; B: /; C: -7%; D: /; E: /; F: /
> COc1ccc(Br)cc1CSC(=N)N
  A: -21%; B: 8%; C: -1%; D: ?; E: -5%; F: -2%
> CCCCCOc1ccc(Br)cc1CSC(=N)N
  A: -46%; B: ?; C: -4%; D: ?; E: 10µM*; F: -5%
> CCCCc1nn2c(=O)cc(COC(=O)c3cccs3)nc2s1
  A: -17%; B: -21%; C: ?; D: 2%; E: -1%; F: /
> Cc1cc(C)c(NC(=O)CNC(=O)CN(C)Cc2ccc(Br)s2)c(C)c1
  A: -25%; B: /; C: 2%; D: 6.3µM*; E: -5%; F: -7%
> COc1nc(NCc2ccco2)nc(NC2CCCCC2)n1
  A: -2%[57.5 µM]; B: -51%; C: 35%; D: ?; E: -1%; F: 27%
> CCOc1nc(NC2CCCCC2)nc(NC(C)(C)C)n1
  A: -15%[57.5 µM]; B: -4%; C: -7%; D: 5.6µM*; E: 4%; F: 1%
> Cc1ccc(CN2CCN(C3CCN(C(=O)c4ccc(C)cc4)CC3)C(=O)C2=O)cc1
  A: i; B: -3%; C: -5%; D: 8%; E: 1%; F: /
> COCC1=C(C(=O)OC(C)OC(=O)OC(C)C)N2C(=O)C(NC(=O)/C(=N/OC)c3csc(N)n3)[C@H]2SC1 (stereo not given in full)
  A: /; B: /; C: /; D: /; E: /; F: -2%
> Cc1cccc(-n2c(CCc3ccccc3)nnc2SCC(=O)c2ccccc2)c1
  A: -14%; B: 1%; C: 26%; D: 5µM*; E: ?; F: -2%
> O=C(CNC(=O)c1ccccc1)OCC(=O)c1ccc2ccccc2c1
  A: /; B: /; C: -3%; D: /; E: /; F: /
> CC(CCCN(C)C)C(Cc1ccccc1)c1ccccc1 (stereo not given)
  A: i; B: /; C: -8%; D: 11µM*; E: -8%; F: 4%
> C/C(=C(\CCO)SSCC1CCCO1)N(C=O)Cc1cnc(C)nc1N (stereo not given)
  A: /; B: /; C: /; D: /; E: /; F: -1%
> Cc1cccc(C(=O)Nc2nnc(SCc3cc(=O)n4cccc(C)c4n3)s2)c1
  A: -22%; B: -1%; C: ?; D: 3%; E: 11%; F: /
> CC1C(=O)C(C)C(c2cc(Cl)ccc2O)NC1c1cc(Cl)ccc1O (stereo not given)
  A: i; B: 16%; C: -7%; D: 5.6µM*; E: ?; F: -3%
> CN(C(=O)CSc1cc(C(=O)c2nccn2C)c2ccccc2n1)c1ccccc1
  A: -14%; B: ?; C: -6%; D: 10µM*; E: ?; F: 6%

A stretch from the list above, as a working copy:
Keys: A = PTHR1 ag; B = miR-21 reporter; C = Pin1 inh; D = GLP-1R inv ag; E = GLP1R cytotox; F = GLP-1R agonist
> CCCCc1nn2c(=O)cc(COC(=O)c3cccs3)nc2s1
  A: -17%; B: -21%; C: ?; D: 2%; E: -1%; F: /
> Cc1cc(C)c(NC(=O)CNC(=O)CN(C)Cc2ccc(Br)s2)c(C)c1
  A: -25%; B: /; C: 2%; D: 6.3µM*; E: -5%; F: -7%
> COc1nc(NCc2ccco2)nc(NC2CCCCC2)n1
  A: -2%[57.5 µM]; B: -51%; C: 35%; D: ?; E: -1%; F: 27%
